From patent US20220380768A1 (TALLAC THERAPEUTICS, published 2022) come the findings set out here.

Experiment [1] addresses T1, human CD22 (d1 to d7 domain according to NP_001762.2) (human, UniProt P20273 20-687).
T1 construct: domain: d1 to d7 domain; also called human CD22-gly; Siglec-2
In words: SPR; mAb supernatant captured on protein A chip, human CD22 injected. The method, then: Binding of humanized anti-CD22 antibodies to human CD22 was measured by surface plasmon resonance (SPR). For assessment of binding by SPR, biotinylated protein A (15 μg/mL) was immobilized to the surface of an NLC chip. 30 μL of mAb supernatant was added to 150 μL of PBS-T and captured over the protein A surface. Serial dilutions of human CD22-gly (300 nM, 3× dilution) were injected over the mAb-coated chips, and binding kinetics were determined. Chips were regenerated using 4:1 v/v of Pierce IgG elution butter/4M NaCl.

For experiment [2], the target named is T2, cynomolgus monkey CD22 on B cells of cynomolgus PBMCs (cynomolgus monkey).
T2 construct: whole, on cells; also called cynomolgus CD22; Cyno CD22
In words: flow cytometry; Alexa Fluor 647-labelled antibody on CD20+ B cells of cynomolgus PBMCs. The method, then:
Binding of humanized anti-CD22 antibodies to human or cynomolgus PBMCs was measured by flow cytometry. Trima residuals were received from Vitalant and cynomolgus monkey whole blood were received from BioIVT. Both were diluted 1:4 with Phosphate Buffered Saline (PBS, Gibco). Diluted blood was split into two tubes and underplayed with 15 mL Ficoll-Paque (GE Healthcare). Tubes were centrifuged for 30 minutes at 400×g. PBMCs were collected from the interface, washed and resuspended in FACS buffer (PBS with 0.5% Bovine Serum Albumin (Gibco)). 100K PBMCs from human and cynomolgus monkey were plated in 96-well plates and pelleted by centrifugation for five minutes at 400×g and stained at 4° C. in 100 μl Fixable Viability Dye eFluor 780 (Thermo Fisher) diluted 1:4000 in PBS. Cells were centrifuged and stained at 4° C. in 100 μl FACS buffer for 30 minutes containing FcR Blocking Reagent (Miltenyi Biotec), anti-CD20 and Alexa Fluor 647 conjugated CD22 binding antibodies, which were labeled using Molecular Probes Alexa Fluor 647 Protein Labeling kit (Molecular Probes) according to manufacturer's protocol. […] Cells were analyzed on Attune NxT Flow Cytometer (Thermo Fisher), with subsequent data analysis by Flowjo 10.7 (Treestar). […] CD20+ cells were gated to identify B cells and median fluorescent intensity for CD22 was determined.

B1: TNT74 (antibody, human IgG1, kappa, V domains shown)
VH: QVQLLESGGGVVQPGGSLRLSCAASGFAFSIYDMNWVRQAPGKGLEWVSAISSGGGTTYYADSVKGRFTISRDNAKNSLYLQMNSLRAEDTAVYYCARHSGYGTHWGVLFAYWGRGTLVTVSS
VL: DIQMTQSPSSVSASVGDRVTITCRASQDIHGYLAWYQQKPGKAPKLLIYYTSSLQSGVPSRFSGSGSGTDFTLTISSLQPEDFATYYCQQGNTLPWTFGQGTKLEIKR
With B1, in experiment [1], the koff was found to be 0.00289 s⁻¹ and the kon was found to be 186000 M⁻¹ s⁻¹. In experiment [2], the “CD22 Median Fluorescent Intensity on CD20+ cells” value was determined as 185.
